Values of other authors, collected in patent publication US8183046B2, “Temperature resistant pH buffers for use at low temperatures” (The Board of Trustees of the University of Illinois, priority 2007, dated 2012).

Conditions: Table 5, in parentheses; single value; cited from earlier work

## NC(CO)(CO)CO [Trizma, 2-Amino-2-(hydroxymethyl)-1,3-propanediol]
  pKa values for the single buffers: (8.06)
